# Assay results taken from patent publication US20040053309A1, “Proteins, genes and their use for diagnosis and treatment of kidney response” (priority 2000, published 2004).
# Tested on: rats
# Assay: Urine biochemistry parameters in Gentamicin-treated rats
# Type: in vivo, rat
# Conditions: 60 mg/kg/day
# Protocol: Gentamicin, a known kidney toxin, was used to treat rats at a range of doses known to produce varying degrees of bistopathologically evident kidney response. Groups of rats were treated with Gentamicin at the following dose levels: 0.1, 1.0, 10, 40 or 60 mg/kg/day. The rat groups included 10 male rats per treated group, and 20 male rats in the untreated (control) group. Blood samples from rats treated at 40 mg/kg/day after 8 days were taken for proteome analysis, and kidney cortex tissue samples from rats treated at 0.1, 1.0, 10, and 40 mg/kg/day after 8 and 22 days for each group were taken for proteome analysis. Kidney cortex tissue samples were also prepared for histologic examination according to standard tissue preparation protocols.
# At 60 mg/kg/day there were changes in urine biochemistry parameters (raised NAG (N-acetyl-beta-D-glucosaminidase), GGT (gamma-glutamyl-transpeptidase) and urine volume, depressed specific gravity), consistent with kidney damage.
substance,measurement,value
Gentamicin,urine volume,raised
